Only a part is listed here, and it is no random draw. Active and inactive are the calls of the source. Calls come from the whole dose curve; as a rule, active = well fitted inhibition curve with a large enough effect; inconclusive = small, poorly fitted or top-dose-only effect; inactive = no such curve, though single readings can be large or run the other way.
Biological target: Beta-lactamase (Escherichia coli (strain K12)) (UniProt P00811)
Experiment: qHTS Inhibitors of AmpC Beta-Lactamase (assay without detergent); note: nearly all actives have a fitted effect of over 20% in size
Settings: AmpC nitrocefin hydrolysis, absorbance 480 nm, 0.0001% Triton; at 57.1 µM (top of the series)
Description: NIH Molecular Libraries Probe Production Network [MLPCN] NIH Chemical Genomics Center [NCGC] Assay Provider: Professor Brian Shoichet, UCSF Assay Overview: This aggregation profiling approach exploits the sensitivity of aggregate formation to detergent. Inhibition of b-lactamase is measured in the presence and absence of 0.01% Triton X-100. This particular assay had the prescence of 0.01% Triton X-100. See Pubchem assay "Promiscuous and Specific Inhibitors of AmpC Beta-Lactamase (assay without detergent)" for related screen. Compounds that inhibit only in the absence of detergent are considered likely promiscuous aggregators. A screen of 1,030 compounds was performed in Brian Shoichet's lab in 96-well format. AmpC activity was measured by following the absorbance at 480 nm. Nitrocefin is a chromogenic substrate: while nitrocefin is yellow (lmax 390 nm), the product of its hydrolysis is red (lmax 486 nm, 17,000 M-1). AmpC beta lactamase was provided by Shoichet Lab, UCSF.
Buffer: 20 mM phosphate buffer, pH 7.0 Triton X-100: No Detergent screen: 0.0001%, Detergent screen: 0.01%. Reagents/Controls: Buffer in columns 3 and 4 as negative control (no enzyme). 5.3 nM AmpC in columns 1, 2, 5-48. […] The plates were immediately transferred to and read every 20 seconds for 4 min on ViewLux (Perkin-Elmer) High-throughput CCD imager using 480 nm absorbance protocol. […]

Protein sequences, listed by entry. Tags and fused reporters are not part of them.
UniProt P00811, whole entry: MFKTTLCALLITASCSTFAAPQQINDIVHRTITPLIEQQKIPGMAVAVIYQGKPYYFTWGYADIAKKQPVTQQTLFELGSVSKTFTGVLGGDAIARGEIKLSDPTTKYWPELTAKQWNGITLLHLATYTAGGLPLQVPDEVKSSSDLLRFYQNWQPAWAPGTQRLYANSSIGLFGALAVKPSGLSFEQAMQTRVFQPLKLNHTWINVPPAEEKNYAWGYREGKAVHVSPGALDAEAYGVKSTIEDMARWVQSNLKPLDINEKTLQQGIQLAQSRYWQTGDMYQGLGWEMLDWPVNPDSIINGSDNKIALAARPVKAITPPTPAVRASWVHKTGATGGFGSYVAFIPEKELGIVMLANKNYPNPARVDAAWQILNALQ

Compound | activity change, negative = inhibition
CCC(=O)N(c1ccccc1)C1(COC)CCN(CCn2nnn(CC)c2=O)CC1 | inactive: 22.4%
CCC(=O)N(c1ccccc1)C1(COC)CCN(CCc2cccs2)CC1 | inactive: 20.7%

Source: PubChem BioAssay AID485341 (National Center for Advancing Translational Sciences (NCATS), 2010)
